PubChem BioAssay AID641 (Vanderbilt High Throughput Screening Facility, 2007)
This is a selection; strong and weak results do not stand in their true shares. The source made the active and inactive calls.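 The calls were made as follows: active = luminescence count or its row- and column-corrected plate score outside the 99.7% band of the plate's sample wells, on either side; inactive = the rest.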

Protein sequences, listed by entry. Tags and fused reporters are not part of them.
UniProt P21728, whole entry: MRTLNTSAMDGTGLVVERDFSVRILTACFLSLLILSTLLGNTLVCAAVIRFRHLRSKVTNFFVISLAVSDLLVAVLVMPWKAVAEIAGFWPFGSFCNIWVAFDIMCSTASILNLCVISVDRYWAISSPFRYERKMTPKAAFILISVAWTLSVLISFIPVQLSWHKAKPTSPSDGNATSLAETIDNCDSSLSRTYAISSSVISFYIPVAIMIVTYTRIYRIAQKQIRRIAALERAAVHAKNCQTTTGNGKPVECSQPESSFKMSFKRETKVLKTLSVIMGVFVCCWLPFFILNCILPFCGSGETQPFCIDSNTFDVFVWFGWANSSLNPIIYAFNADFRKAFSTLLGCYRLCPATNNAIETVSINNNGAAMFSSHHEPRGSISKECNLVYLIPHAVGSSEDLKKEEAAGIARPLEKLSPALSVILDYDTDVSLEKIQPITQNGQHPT

What follows are compounds tested against D(1A) dopamine receptor (Homo sapiens) (UniProt P21728) (assay: D1 CRE-luciferase signal change, two-sided – cell-based, HEK293 D1, dopamine EC30, D1 allosteric modulator project, primary screen (AID 641)). Conditions: dopamine EC30 potentiation, at 10 µM, actives deviate in either direction.
With N#CC1(Nc2ccccc2)CCN(CCc2ccccc2)CC1 the B-score was inactive: 0.0197. In the case of COc1ccc(NC2CCN(CCc3ccccc3)CC2)c(OC)c1, the B-score is reported as inactive: -3.02. O=C(OC1CN2CCC1CC2)C1c2ccccc2Oc2ccccc21 (configuration not stated) was tested, and the B-score was inactive: -0.0349. CCC(CO)(C(=O)OC1CN2CCC1CC2)c1ccccc1 (configuration not stated) was tested, and the B-score was inactive: -0.0733. CCOc1ncccc1C(=O)NCC1(N2CCOCC2)CCCCC1 was tested, and the B-score was active: 16.9. Fc1ccccc1NC1CCN(Cc2ccccc2)CC1 was tested, and the B-score was active: -3.44. In the case of N/C(=N\O)c1c(N)no[n+]1[O-], the B-score is reported as inactive: 0.0843.
